Assay type: physicochemical
Procedure: 2.71×10^−3 mole of ABSD zwitterion (anhydrous) were added to 5.42×10^−3 mole of NaOH and the mixture was dissolved in 2 mL of water. Then, crystallization was forced by adding an anti-solvent (Ethanol) in large excess (30 mL). After filtration, the solid was analyzed by XRPD. This XRPD pattern proves that a new phase has been crystallized. It should be the disodium salt of ABSD. A TGA-DSC analysis (coupled to mass spectrometry) was performed on this salt in order to observe its thermal behavior, and to determine its water content. According to this analysis, this phase loses water between 30 and 40° C.
A TGA-DSC analysis (coupled to mass spectroscopy) was performed on this phase (FIG. 8).
A TGA-DSC analysis coupled to a Mass Spectroscopy (MS) was performed on this phase (FIG. 10).

- melting-degradation temperature: circa 175 °C
- temperature of loss of water (TGA-DSC from 30° C., heating rate 5K/Min): circa 74 °C
Substance: L-cysteinate
